Consider three compounds from ChEMBL document CHEMBL4842371 (J Med Chem, 2021).

Common to all, as to type: functional, organism-based
The subject of assay [1] is Rattus norvegicus. Put plainly: Antipsychotic activity in Sprague-Dawley rat assessed as inhibition of PCP-induced hyperactivity at 0.3 to 3 mg/kg, po measured after 2 hrs. The following applies: dose 0.3-3 mg/kg.
Assay [2] deals with Rattus norvegicus. The assay can be described thus: Antipsychotic activity in Sprague-Dawley rat assessed as inhibition of PCP-induced hyperactivity at 0.5 mg/kg, po in presence of ondansetron measured after 2 hrs.
Assay [3] deals with Rattus norvegicus. Put plainly: Antipsychotic activity in Sprague-Dawley rat assessed as inhibition of PCP-induced hyperactivity at 0.5 mg/kg, po measured after 2 hrs.
Assay [4] deals with Rattus norvegicus. The assay can be described thus: Antipsychotic activity in Sprague-Dawley rat assessed as inhibition of PCP-induced hyperactivity at 1 to 9 mg/kg, po measured after 1 to 2 hrs. The conditions noted are these: dose 1-9 mg/kg, time 1-2 hrs.
Assay [5] relates to Rattus norvegicus. The assay can be described thus: Antipsychotic activity in Sprague-Dawley rat assessed as inhibition of PCP-induced hyperactivity at 1 mg/kg, po in presence of ondansetron.

Activity calls are given as the source filed them. No cut-off for these calls is given here.

Take `O=S(=O)(c1cccc(Cl)c1)n1ccc2c(N[C@H]3CCNC3)nc3ccccc3c21`: the result in the assay with Rattus norvegicus [1] was inactive. Moreover, the result in the assay on Rattus norvegicus [2] was Active.
For the compound `Cc1nccn1CC1CCc2c(c3ccccc3n2C)C1=O` (stereo not given), the outcome in the assay with Rattus norvegicus [3] was inactive.
Turning to `COc1ccc(S(=O)(=O)Nc2cc(Cl)cc(Cl)c2OC)cc1N1CCNCC1`, in the assay with Rattus norvegicus [4], the result was inactive. In addition, the outcome in the assay on Rattus norvegicus [5] was Active.
